Laboratory results published in US20030022253A1, “Method for identifying, isolating and producing neuroactive binding agents and binding agents derived thereby” (Nyxis Neurotherapies, Inc., priority 2001, published 2003).

How the values were obtained:
[1] = up to 500 mg/Kg of peptide delivered IV
[2] = delivered intravenously or trans-nasally

Substance: threonine-proline-proline-threonine [NT-13]
- side effects [1]: no obvious side effects
- crossing of the blood brain barrier [2]: cross the blood brain barrier
